Test system: breast cancer (hyperactivity of HER2 gene), tumor in the mediastinum
Assay: Case report: breast cancer patient with mediastinal tumor, Herceptin plus DDW
Type: in vivo, human
Procedure: In one patient in our data base, a tumor of 7.5 cm maximal diameter was discovered in the mediastinum 10 years after mastectomy, in January 2002. The patient received Herceptin and started to drink DDW in February.
DdU units used in the treatment were determined as described in Example 1 and 2.

trastuzumab [Herceptin]
tumor detection (one patient, tumor of 7.5 cm maximal diameter, 8 months after start of Herceptin with DDW consumption): could not be detected
symptom status (same patient, 8 years later (2010), Herceptin with DDW): free of symptoms
